Ab-14 light chain CDR variants: yeast mating affinities

Binding partner: SARS-CoV-2 spike HR2 peptide, sequence PDVDLGDISGINAS.

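The parent was found by panning a naive human phage display library on the peptide. Designed CDR sequences, proposed from the first random library and measured here. Their group label is 14L_GP_Gen (GP: Gaussian process model; Gen: genetic algorithm; a sequence that several methods proposed may carry one label only). The scFvs were displayed on barcoded MATa yeast, the peptide on MATalpha yeast. The frequency of each diploid, read from paired DNA barcodes, reflects how well the two displayed proteins bind. Read counts were normalised to the haploid input and turned into Kd by a linear fit to BCL2-family pairs of known affinity, for each replicate. The assay was run in six technical replicates.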

Each scFv is VH, a (GGGGS)3 linker, VL, as in the parent Ab-14, and differs from it in the CDRs of the light chain only.
VH: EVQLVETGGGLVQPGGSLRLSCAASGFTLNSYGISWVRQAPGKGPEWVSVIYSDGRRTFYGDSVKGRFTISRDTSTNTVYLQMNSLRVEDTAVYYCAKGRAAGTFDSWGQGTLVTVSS
VL: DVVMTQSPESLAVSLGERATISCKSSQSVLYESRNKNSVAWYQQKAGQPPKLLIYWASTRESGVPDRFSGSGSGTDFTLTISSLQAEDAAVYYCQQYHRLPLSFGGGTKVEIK

The whole VL of each variant is written out. Affinities are written as log10 Kd with Kd in nM; a lower number is a better binder. The authors' rule: three or more of the six replicates give a measured affinity, fewer mean a poor binder. Of ten entries with the parent sequence, four were seen in most replicates (averages 0.34 to 2.37), three in one and three in none, so single entries are noisy. Background: pairings of all light chain designs with three empty control strains gave a value in 4% of cases (median 2.64, 5th percentile 1.59). Values in that range, when seen in few replicates, are hard to tell from nonspecific mating. The control count says in how many pairings with the empty strains this scFv gave a signal, with their mean in brackets. Values of this round are not directly comparable with the first-round values of the same sequences.

| VL | log10 Kd, replicates | empty controls |
|---|---|---|
| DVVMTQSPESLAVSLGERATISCKLSWSMLYESRNKNSVAWYQQKAGQPPKLLIYDASQRESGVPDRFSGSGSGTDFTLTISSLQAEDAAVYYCQQYHRLPLSFGGGTKVEIK | 0.40 / 0.27 / 0.42 / 0.19 / 0.47 / 0.69 | 0/18 |
| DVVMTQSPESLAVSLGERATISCKLSQSFLYESRNKNNVAWYQQKAGQPPKLLIYEASTRESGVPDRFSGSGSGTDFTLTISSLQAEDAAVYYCQQYHRLPLSFGGGTKVEIK | -0.08 / -0.46 / -0.53 / -0.50 / -0.43 / -0.16 | 0/18 |
| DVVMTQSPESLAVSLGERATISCKLQQSGLYESRNKNSVAWYQQKAGQPPKLLIYSASTRESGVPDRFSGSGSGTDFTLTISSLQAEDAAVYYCQQYHRLPLSFGGGTKVEIK | -0.13 / -0.24 / -0.26 / -0.44 / -0.36 / -0.11 | 2/18 (2.75) |
| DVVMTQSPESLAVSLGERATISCKLSQSVLYESRNKNSVAWYQQKAGQPPKLLIYMASQRESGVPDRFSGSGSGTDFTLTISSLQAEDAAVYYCQQYHRLPLSFGGGTKVEIK | 0.62 / 0.41 / 0.37 / 0.46 / 0.50 / 0.57 | 1/18 (2.93) |
| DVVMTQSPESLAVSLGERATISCKLYQSGLYESRNKNSVAWYQQKAGQPPKLLIYEASTRESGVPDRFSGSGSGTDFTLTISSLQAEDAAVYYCQQYHRLPLSFGGGTKVEIK | -0.18 / -0.24 / -0.39 / -0.23 / -0.52 / -0.35 | 2/18 (3.56) |
| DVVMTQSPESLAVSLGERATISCKVEQSHLYESRNKNSVAWYQQKAGQPPKLLIYQASTRESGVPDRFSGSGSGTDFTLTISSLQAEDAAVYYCQQYHRLPLSFGGGTKVEIK | -0.03 / -0.03 / -0.01 / -0.10 / -0.04 / -0.11 | 2/18 (3.10) |
| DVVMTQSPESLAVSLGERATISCKLSQSDLYESRNKNSVAWYQQKAGQPPKLLIYEASTRCSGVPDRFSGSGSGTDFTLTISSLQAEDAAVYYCQQYHRLPLSFGGGTKVEIK | -0.15 / -0.16 / -0.07 / -0.26 / -0.29 / 0.11 | 0/18 |
| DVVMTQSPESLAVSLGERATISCKLSQSVLYESRNKNSVAWYQQKAGQPPKLLIYNASTRECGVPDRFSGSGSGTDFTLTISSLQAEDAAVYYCQQYHRLPLSFGGGTKVEIK | -0.51 / -0.30 / -0.40 / -0.46 / -0.38 / -0.40 | 1/18 (4.68) |
| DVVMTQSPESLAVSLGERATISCKLSQSVPYESRNKNSVAWYQQKAGQPPKLLIYEASQRESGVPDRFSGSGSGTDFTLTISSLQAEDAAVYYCQQYHRLPLSFGGGTKVEIK | 2.40 / 0.90 / 1.40 / 2.48 / 2.40 / 1.06 | 0/18 |
| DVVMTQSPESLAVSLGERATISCKLPQSVLYESRNKNSVAWYQQKAGQPPKLLIYGASQRESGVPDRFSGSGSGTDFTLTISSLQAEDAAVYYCQQYHRLPLSFGGGTKVEIK | 0.17 / 0.07 / 0.10 / -0.01 / -0.02 / 0.30 | 2/18 (3.11) |
| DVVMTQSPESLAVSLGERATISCKLSQSGLYESRNKNSVAWYQQKAGQPPKLLIYEASTRESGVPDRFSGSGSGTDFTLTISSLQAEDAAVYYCQQYHRLPLSFGGGTKVEIK | -0.08 / -0.30 / -0.46 / -0.49 / -0.33 / -0.12 | 0/18 |
| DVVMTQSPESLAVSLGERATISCKLQQSVEYESRNKNSVAWYQQKAGQPPKLLIYNASTREVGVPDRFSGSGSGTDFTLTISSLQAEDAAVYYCQQYHRLPLSFGGGTKVEIK | 0.24 / 0.28 / 0.14 / 0.07 / 0.17 / 0.30 | 2/18 (2.89) |
| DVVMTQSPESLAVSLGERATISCKLSQSWLYESRNSNSVAWYQQKAGQPPKLLIYNASTRMSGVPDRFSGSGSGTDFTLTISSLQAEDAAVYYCQQYHRLPLSFGGGTKVEIK | -0.34 / -0.10 / -0.23 / -0.40 / -0.25 / -0.16 | 2/18 (3.52) |
| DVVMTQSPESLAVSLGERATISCKLSQSNLYESRNKNNVAWYQQKAGQPPKLLIYNASTRMSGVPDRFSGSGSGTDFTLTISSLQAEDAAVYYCQQYHRLPLSFGGGTKVEIK | -0.43 / -0.53 / -0.46 / -0.67 / -0.58 / -0.44 | 0/18 |
| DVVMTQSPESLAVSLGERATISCKLEQSHLYESRNKNSVAWYQQKAGQPPKLLIYNASTREVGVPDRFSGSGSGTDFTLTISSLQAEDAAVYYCQQYHRLPLSFGGGTKVEIK | -0.11 / -0.27 / -0.21 / -0.33 / -0.34 / -0.33 | 2/18 (2.03) |
| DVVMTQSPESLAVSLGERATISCKLWQSVLYESRNKNSVAWYQQKAGQPPKLLIYNASTRESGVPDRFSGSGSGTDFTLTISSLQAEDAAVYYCQQYHRLPLSFGGGTKVEIK | 2.73 / 1.64 / 1.73 / 1.39 / 2.16 / 1.78 | 1/18 (2.69) |
| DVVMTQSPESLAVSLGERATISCKLSQSQLYESRNKNSVAWYQQKAGQPPKLLIYNASTRCSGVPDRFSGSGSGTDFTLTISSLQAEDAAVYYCQQYHRLPLSFGGGTKVEIK | 0.24 / -0.01 / 0.17 / -0.15 / 0.13 / 0.09 | 1/18 (3.39) |
| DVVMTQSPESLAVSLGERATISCKLSQSMQYESRNKNSVAWYQQKAGQPPKLLIYNASTRESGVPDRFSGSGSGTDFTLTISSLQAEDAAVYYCQQYHRLPLSFGGGTKVEIK | 0.11 / 0.04 / -0.06 / -0.05 / -0.13 / 0.07 | 1/18 (2.71) |
| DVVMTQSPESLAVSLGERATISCKLQQSELYESRNKNSVAWYQQKAGQPPKLLIYNASTRMQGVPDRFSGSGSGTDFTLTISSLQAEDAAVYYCQQYHRLPLSFGGGTKVEIK | 0.47 / -0.28 / -0.68 / -0.15 / -0.61 / 0.12 | 0/18 |
| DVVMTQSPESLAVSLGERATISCKFEQSWLYESRNKNSVAWYQQKAGQPPKLLIYNASQRESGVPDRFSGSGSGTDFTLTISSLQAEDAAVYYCQQYHRLPLSFGGGTKVEIK | -0.25 / -0.38 / -0.30 / -0.71 / -0.22 / -0.23 | 0/18 |
| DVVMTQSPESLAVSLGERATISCKLSMSWLYESRNKNSVAWYQQKAGQPPKLLIYNASTRESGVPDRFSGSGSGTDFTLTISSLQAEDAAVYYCQQYHRLPLSFGGGTKVEIK | 0.36 / 0.32 / 0.23 / 0.24 / 0.29 / 0.39 | 0/18 |
| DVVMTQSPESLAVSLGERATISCKLSQSVEMESRNKNSVAWYQQKAGQPPKLLIYEASTRESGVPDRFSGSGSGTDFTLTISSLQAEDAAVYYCQQYHRLPLSFGGGTKVEIK | -0.17 / -0.21 / -0.16 / -0.47 / -0.23 / -0.16 | 0/18 |
| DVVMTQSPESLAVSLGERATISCKLPQSWLYESRNKNSVAWYQQKAGQPPKLLIYNASQRMSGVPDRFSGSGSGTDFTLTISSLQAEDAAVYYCQQYHRLPLSFGGGTKVEIK | -0.20 / -0.12 / -0.27 / -0.20 / -0.43 / -0.18 | 0/18 |

Values reported by Li et al. 2023, doi:10.1038/s41467-023-39022-2 (FLAb copy).